The source of these data is patent US5084454A, “2-(piperidinylmethyl)-4-phenyl-2,3-dihydro-4H-1,4-benzoxazines useful as antipsychotics” (Farmitalia Carlo Erba S.r.l., priority 1988, dated 1992).

The term IC50 denotes the concentration at which inhibition is half-maximal. One may read the ED50 as the dose at which the effect has come halfway, by size or by number of responders. A higher ED50 goes with weaker potency.

Read-outs that look alike come from different tables or passages of the source.

One data set has as its target T1, D1 dopamine receptor (Rattus norvegicus, UniProt P18901).
T1 construct: from tissue
Kind of data set: D1 dopamine receptor binding affinity, [3H]cis-Flupenthixol. The settings on record: read-out: IC50 D1 [3H]cisFlu.

The target in the next data set is T2, D2 dopamine receptor (Rattus norvegicus, UniProt P61169).
T2 construct: from tissue
Kind of data set: D2 dopamine receptor binding affinity, [3H]Spiperone.

In a further data set the target is T3, 5HT2 serotonine receptor (Rattus norvegicus, UniProt P14842).
T3 construct: from tissue
Kind of data set: 5HT2 serotonine receptor binding affinity, [3H]Ketanserine. The conditions noted are these: read-out: IC50 5HT2 [3H]Ket. How it is done:
The activity of the compounds of the present invention was evaluated for example in a series of receptorial binding affinity tests.
J. Pharmacol. 1977, 46, 377; Hyttel, J. Life Sci. 1981, 28, 563; Pedigo et al. Journal of Neurochemistry, 1981, 36, 220; Leysen et al. Molecular Pharmacology, 1981, 21, 301; Battaglia et al. Life Science, 1983, 33, 2011; Greengrass P., Brener R. Eur. J. Pharmacol., 1979, 55, 323; and Perry B. D., U'Prichard D. C. Eur. J. Pharmacol. 1981, 76, 461]
In the table cis-Flu. means cis-Flupenthixol; Spip. means Spiperone; Serot. means Serotonin; Ket. means Ketanserine; Praz. means Prazosin and Yohim. means Yohimbine, respectively. The above internal FCE codes refer to the following compounds

For data set [1], the system named is apomorphine-induced climbing behaviour in mice. Kind of data set: antagonism of apomorphine-induced climbing behaviour in mice. The class given is in vivo, mouse. The settings on record: for ED50 Climbing: oral; for ED50: Mus musculus, po. How it is done: The activity of the compounds of the present invention on the central nervous system was also evaluated by following for instance the technique of Protais P. et al. (Psychopharmacology, 50, 1 (1976).
The toxicity of the compounds of the invention is negligible, therefore they can be safely used in therapy. Nine hours food deprived mice were treated orally with single administration of increasing doses, then housed and normally fed. The orientative acute toxicity (LD50) was assessed on the seventh day after the treatment and resulted, in general, higher than 600 mg/kg. Following Table 2 summarizes the biological data obtained according to the above mentioned tests for some compounds of the present invention; Haloperidol has been evaluated in the same tests for comparative purposes.

For data set [2], the system named is cataleptic activity in the mouse. The settings on record: in vivo, po; for ED50 Catalepsy: 6 h.
Data set [3] in a line: in vivo. The settings on record: mouse, po.
Data set [4] can be described thus: in vivo. The settings on record: mouse, po, ED50 Catalepsy.
In another data set the test system is mice. The conditions noted are these: datum given according to Il Farmaco Ed. Sc. 1976, 31, 442; 10080 min; cited from earlier work.

In the case of `O=C1NCN(c2ccccc2)C12CCN(CC1CN(c3ccccc3)c3ccccc3O1)CC2` (single isomer, unassigned; (+)) [FCE 25895, (+) 2-(1-phenyl-1,3,8-triazaspiro[4,5]decan-4-one-8-yl)-methyl-4-phenyl-2,3-dihydro-4H-1,4-benzoxazine], the IC50 on D1 dopamine receptor turned out to be 1.2 µM; on D2 dopamine receptor (IC50 D2 [3H]Spip.) it was 0.005 µM; at 5HT2 serotonine receptor it was 0.006 µM. Further, in data set [1], the “ED50 Climbing” value is 3.8 mg/kg/os. The ED50 Catalepsy in data set [2] came out at 61 mg/kg.
On to `O=C1NCN(c2ccccc2)C12CCN(CC1CN(c3ccccc3)c3ccccc3O1)CC2` (single isomer, unassigned; (-)) [FCE 25896, (-) 2-(1-phenyl-1,3,8-triazaspiro[4,5]decan-4-one-8-yl)-methyl-4-phenyl-2,3-dihydro-4H-1,4-benzoxazine], for which the IC50 at D1 dopamine receptor was > 10 µM; at D2 dopamine receptor (read-out: IC50 D2 [3H]Spip.), 0.2 µM; at 5HT2 serotonine receptor, 0.08 µM. The “ED50 Climbing” value in data set [1] came to 1.8 mg/kg/os. Besides, the “(ED50 Catalepsy / ED50 Climbing)” value in data set [2] is 12.6. Also, the ED50 Catalepsy in data set [2] came out at 22.7 mg/kg. Also, the LD50 at 168 h in “in vivo [3]” was > 800 mg/kg.
As for `O=C1NCN(c2ccccc2)C12CCN(CC1CN(c3ccccc3)c3ccccc3O1)CC2` (centres unmarked) [FCE 24867, 2-(1-phenyl-1,3,8-triazaspiro[4,5]decan-4-one-8-yl)-methyl-4-phenyl-2,3-dihydro-4H-1,4-benzoxazine], the results for the IC50 on D1 dopamine receptor, at D2 dopamine receptor (IC50 D2 [3H]Spip.) and at 5HT2 serotonine receptor were 1.4 µM, 0.008 µM and 0.04 µM, respectively. The molecule also came in with a median effective dose (ED50) in data set [1] of 4.5 mg/kg. In the data set “in vivo [4]”, this molecule gave an ED50 at 6 h of 30.8 mg/kg.
As to `O=C1NCN(c2ccccc2)C12CCN(CC1CN(c3ccc(F)cc3)c3ccc(F)cc3O1)CC2` (centres unmarked) [FCE 25452, 2-(1-phenyl-1,3,8-triazaspiro[4,5]decan-4-one-8-yl)-methyl-4-(4-fluorophenyl)-7-fluoro-2,3-dihydro-4H-1,4-benzoxazine], the half-maximal inhibitory concentration (IC50) at D1 dopamine receptor is 0.9 µM; at D2 dopamine receptor (IC50 D2 [3H]Spip.) it was 0.009 µM; at 5HT2 serotonine receptor, 0.02 µM.
As to `OC1(c2cccc(C(F)(F)F)c2)CCN(CC2CN(c3ccccc3)c3ccccc3O2)CC1` (centres unmarked) [FCE 25456, 2-[4-(3-trifluoromethyl-phenyl)-4-hydroxy-piperidin-1-yl]-methyl-4-phenyl-2,3-dihydro-4H-1,4-benzoxazine], the figures for the IC50 on D1 dopamine receptor, on D2 dopamine receptor (IC50 D2 [3H]Spip.) and on 5HT2 serotonine receptor were > 10 µM, 0.001 µM and 0.1 µM, respectively. Besides, the ED50 in data set [1] was found to be 2.5 mg/kg. In addition, the “(ED50 Catalepsy / ED50 Climbing)” value in data set [2] is recorded as 8. Besides, it took a dose of 20 mg/kg to reach the 50% effect level in “in vivo [4]” (ED50 at 6 h). Further, the LD50 at 168 h in “in vivo [3]” was > 800 mg/kg.
For the molecule `O=C1NCN(c2ccccc2)C12CCN(CC1CN(c3ccc(F)cc3)c3ccccc3O1)CC2` (centres unmarked) [FCE 25676, 2-(1-phenyl-1,3,8-triazaspiro[4,5]decan-4-one-8-yl)-methyl-4-(4-fluorophenyl)-2,3-dihydro-4H-1,4-benzoxazine], the half-maximal inhibitory concentration (IC50) on D1 dopamine receptor was 1 µM; at D2 dopamine receptor (IC50 D2 [3H]Spip.), 0.002 µM; at 5HT2 serotonine receptor, 0.02 µM. The 50% effective dose (ED50) in data set [1] worked out at 4.9 mg/kg. In the data set “in vivo [4]”, this molecule returned an ED50 at 6 h of 75 mg/kg.
In the case of `O=C1NCN(c2ccccc2)C12CCN(CC1CN(c3ccccc3)c3ccc(F)cc3O1)CC2` (centres unmarked) [FCE 25848, 2-(1-phenyl-1,3,8-triazaspiro[4,5]decan-4-one-8-yl)-methyl-4-phenyl-7-fluoro-2,3-dihydro-4H-1,4-benzoxazine], the IC50 came to 2.4 µM on D1 dopamine receptor, 0.04 µM on D2 dopamine receptor (IC50 D2 [3H]Spip.) and 0.03 µM on 5HT2 serotonine receptor.
The molecule `O=C(CCCN1CCC(O)(c2ccc(Cl)cc2)CC1)c1ccc(F)cc1` [Haloperidol, reference compound] returned a 50% effective dose (ED50) in data set [1] of 0.5 mg/kg. Also, in the data set on mice, the LD50 is listed as 71 mg/kg/os. For the same molecule, in “in vivo [4]”, the 50% effective dose (ED50) at 6 h came out at 2.2 mg/kg.
